Protein sequences, listed by entry. Tags and fused reporters are not part of them.
UniProt P27487, whole entry: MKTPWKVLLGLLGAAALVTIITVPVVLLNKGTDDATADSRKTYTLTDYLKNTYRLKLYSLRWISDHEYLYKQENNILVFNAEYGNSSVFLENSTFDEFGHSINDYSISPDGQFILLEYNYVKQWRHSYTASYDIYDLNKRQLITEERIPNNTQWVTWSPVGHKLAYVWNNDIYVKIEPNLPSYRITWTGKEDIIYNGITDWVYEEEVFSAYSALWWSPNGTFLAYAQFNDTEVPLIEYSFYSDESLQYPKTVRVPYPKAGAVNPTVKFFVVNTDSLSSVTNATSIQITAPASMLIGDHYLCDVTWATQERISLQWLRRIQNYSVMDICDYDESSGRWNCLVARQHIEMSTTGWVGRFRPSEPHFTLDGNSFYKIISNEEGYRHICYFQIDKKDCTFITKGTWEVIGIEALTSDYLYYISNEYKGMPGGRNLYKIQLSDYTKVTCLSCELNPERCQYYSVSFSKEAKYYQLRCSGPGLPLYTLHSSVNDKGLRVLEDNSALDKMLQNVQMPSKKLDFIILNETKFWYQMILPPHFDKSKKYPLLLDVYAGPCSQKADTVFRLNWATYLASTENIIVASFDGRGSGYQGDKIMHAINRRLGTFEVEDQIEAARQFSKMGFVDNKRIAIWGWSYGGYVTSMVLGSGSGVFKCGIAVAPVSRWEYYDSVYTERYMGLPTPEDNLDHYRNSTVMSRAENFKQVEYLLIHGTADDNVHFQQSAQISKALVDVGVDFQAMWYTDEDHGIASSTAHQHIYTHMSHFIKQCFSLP

In publication PMC11049645, “Mechanistic Study of Novel Dipeptidyl Peptidase IV Inhibitory Peptides from Goat’s Milk Based on Peptidomics and In Silico Analysis” (Foods, 2024):

Experiments:
DPP-IV = biological target: T1, DPP-IV (Homo sapiens, UniProt P27487); experiment: DPP-IV inhibitory assay (in vitro chemical system, Gly-Pro-pNA); type: biochemical
T1 construct: purchased Sigma-Aldrich
Procedure: The DPP-IV inhibitory activity of peptides was performed as previously reported with slight modifications. Briefly, peptides were diluted using 100 mM Tris-HCL buffer (pH = 8). Then, 25 μL diluted peptides were mixed with 25 μL of 1.6 mM Gly-Pro-pNA in a 96-well microplate and incubated at 37 °C for 10 min. […] The DPP-IV-inhibition (DI) was calculated with the following equation: DI%=1−AS−ASC/ANR−ANC×100% where AS (sample) is the optical density in the presence of peptide, DPP-IV, and Gly-Pro-pNA; ASC (sample control) is the optical density when DPP-IV is replaced with Tris-HCl buffer (100 mM, pH 8.0); ANR (negative reaction) is the optical density in the presence of only DPP-IV solution and Gly-Pro-pNA; and ANC (negative control) is the optical density in the absence of DPP-IV and peptide.

[1] = biological target: T2, DPP-IV activity of Caco-2 cells (Homo sapiens, UniProt P27487); experiment: In situ cell-based DPP-IV inhibition (Gly-Pro-AMC); conditions: 1 h at 37 °C, Gly-Pro-AMC 50 µM, mean ± SD (n = 3), read-out: In situ DPP-IV inhibitory activity IC50
T2 construct: endogenous in cells; host or cells: Caco-2
Procedure: The Caco-2 cells (Cell Bank of Shanghai Academy of Biological Science, Shanghai, China) were incubated at 37 °C in a 5% CO2 environment in DMEM supplemented with 10% FBS and 1% penicillin–streptomycin liquid. Unless otherwise stated below, the cells were cultivated at a density of 5 × 10^4 cells/mL in the culture dishes (Corning Inc., Corning, NY, USA). The cell culture medium was changed every two days, and the cells from passage numbers of 15–25 were used in this study.
Briefly, 2 × 10^4 Caco-2 cells/well cells were seeded in 96-well microplates and cultivated for 24 h. […] Subsequently, 100 µL of the fluorescent substrate Gly-Pro-AMC (50 µM) was added to each well and incubated for 5 min. IPI was used as a positive control. Then, the florescence was monitored with excitation and emission wavelengths of 380 nm and 500 nm (Molecular Devices SpectraMax M5, San Jose, CA, USA).

Compound `N[C@@H](Cc1ccc(O)cc1)C(=O)N1CCC[C@H]1C(=O)N[C@@H](Cc1ccccc1)C(=O)O` [Peptide P4, YPF] has an IC50 (DPP-IV) of 369 ± 13 µM and an IC50 [1] of 159 ± 17.4 µM.
